Test results from patent publication US10828349B2, “Treatment of microbial infections” (NATIONAL UNIVERSITY OF IRELAND, GALWAY, priority 2011, dated 2020).

Assay: effect of milk pasteurisation heating on the enzymatic components
Type: physicochemical
Settings: held 15-600 seconds; activity read by E. coli total viable counts in milk after 24 hrs at 37° C.
Protocol: An attempt was made to determine the effects of the milk pasteurisation process on the enzymatic components, which can be used to produce the reactive oxygen species of the composition of the present invention. Working concentrations of the enzymes were heated in 50 μl volumes to 72° C. and held for 15, 30, 60, 300 or 600 seconds.
Appropriate concentrations of these aliquots were then transferred to milk containing the necessary components of the system and ˜10^8 cells/ml E. coli. Total viable counts were performed after 24 hrs incubation at 37° C. This allowed the determination of whether the enzymes were still active after heating.

Q: Which “enzyme activity after heating to 72° C.” value does the source give for Glucose oxidase here?
A: demonstrated activity after 300 seconds heating
